According to PubChem BioAssay AID2528 (National Center for Advancing Translational Sciences (NCATS), 2010):
This is a selection; strong and weak results do not stand in their true shares. Some structures show a salt or complex split into parts, the way the source records it. Activity calls are given as the source filed them. The call rests on the fitted dose curve; in most records, active means well fitted inhibition curve with a large enough effect; inconclusive means small, poorly fitted or top-dose-only effect; inactive means flat fitted curve, though single readings scatter.

Sequences of proteins named here, by UniProt entry; tags and fusion partners are left off.
UniProt P54132, whole entry: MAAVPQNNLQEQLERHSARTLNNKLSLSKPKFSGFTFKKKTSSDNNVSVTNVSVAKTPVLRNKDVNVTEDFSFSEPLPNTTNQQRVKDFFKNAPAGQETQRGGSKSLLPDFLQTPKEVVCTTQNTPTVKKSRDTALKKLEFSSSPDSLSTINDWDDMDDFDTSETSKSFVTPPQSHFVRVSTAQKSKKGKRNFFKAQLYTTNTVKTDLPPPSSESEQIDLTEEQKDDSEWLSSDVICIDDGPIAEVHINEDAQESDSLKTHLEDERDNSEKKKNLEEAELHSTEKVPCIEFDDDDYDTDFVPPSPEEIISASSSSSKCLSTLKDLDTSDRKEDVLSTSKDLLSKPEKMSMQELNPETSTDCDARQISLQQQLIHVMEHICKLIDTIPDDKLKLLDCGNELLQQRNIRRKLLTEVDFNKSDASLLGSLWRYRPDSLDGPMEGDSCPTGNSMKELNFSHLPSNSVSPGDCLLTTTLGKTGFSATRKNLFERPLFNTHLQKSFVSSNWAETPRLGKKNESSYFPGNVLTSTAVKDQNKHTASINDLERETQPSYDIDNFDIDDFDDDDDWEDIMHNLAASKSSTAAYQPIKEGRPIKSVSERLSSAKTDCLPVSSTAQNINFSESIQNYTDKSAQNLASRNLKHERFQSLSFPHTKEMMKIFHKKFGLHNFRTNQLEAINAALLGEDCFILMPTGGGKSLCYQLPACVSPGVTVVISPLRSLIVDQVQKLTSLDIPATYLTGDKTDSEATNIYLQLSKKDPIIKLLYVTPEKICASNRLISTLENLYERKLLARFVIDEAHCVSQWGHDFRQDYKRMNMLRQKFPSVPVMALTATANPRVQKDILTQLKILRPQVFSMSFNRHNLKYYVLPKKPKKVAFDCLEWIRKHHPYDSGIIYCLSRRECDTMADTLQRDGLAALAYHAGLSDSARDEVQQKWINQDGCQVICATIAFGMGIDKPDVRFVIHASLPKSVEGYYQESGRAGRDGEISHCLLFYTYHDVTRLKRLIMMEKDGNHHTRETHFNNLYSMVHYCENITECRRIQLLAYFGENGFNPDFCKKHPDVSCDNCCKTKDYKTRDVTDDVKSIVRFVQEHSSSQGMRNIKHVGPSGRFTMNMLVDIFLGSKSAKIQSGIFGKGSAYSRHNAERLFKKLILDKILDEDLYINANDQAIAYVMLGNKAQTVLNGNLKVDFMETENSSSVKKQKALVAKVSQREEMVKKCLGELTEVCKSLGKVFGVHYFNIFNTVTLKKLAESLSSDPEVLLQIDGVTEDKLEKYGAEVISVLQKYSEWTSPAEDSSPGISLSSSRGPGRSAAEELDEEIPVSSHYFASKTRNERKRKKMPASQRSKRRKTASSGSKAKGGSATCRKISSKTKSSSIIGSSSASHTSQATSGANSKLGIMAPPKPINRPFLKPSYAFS

target: RecQ-like DNA helicase BLM (Homo sapiens) (UniProt P54132); test: qHTS Assay for Inhibitors of Bloom's syndrome helicase (BLM); details: recombinant BLM DNA unwinding, fluorescence dequenching; at 56.1 µM (top of the series);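 further: plate controls were vehicle for no effect and no enzyme for full effect; nearly all actives have a fitted effect of over 35% in size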

| Structure (SMILES) | activity change, negative = inhibition |
| --- | --- |
| O=C(NCC1(N2CCCCC2)CCCCC1)c1ccc(OC(F)F)cc1 | inactive: 1.63% |
| O=C(NCC1(N2CCCCC2)CCCCC1)c1cccc([N+](=O)[O-])c1 | inactive: 0.367% |
| CCOc1ccc(C(=O)NCC2(N3CCOCC3)CCCCC2)cc1 | inactive: -1.41% |
| N#CC1(Nc2ccccc2)CCN(CCc2ccccc2)CC1 | inactive: -4.34% |
| CCN1CCC(Nc2ccc(Cl)cc2)CC1 | inactive: -0.729% |
| O=C(NCC1(N2CCCCC2)CCCCC1)c1cccc(C(F)(F)F)c1 | inactive: -2.49% |
| CCCOc1cccc(C(=O)NCC2(N3CCOCC3)CCCCC2)c1 | inactive: -0.787% |
| O=[N+]([O-])c1cc([N+](=O)[O-])c(NCC2CCS(=O)(=O)C2)c([N+](=O)[O-])c1 (stereo not drawn) | inactive: -19% |
| COc1ccc(NC2CCN(C(=O)OC(C)(C)C)CC2)cc1 | inactive: -3.39% |
| CN1CCN(CCOC(=O)C(O)(c2ccccc2)c2ccccc2)CC1 | inactive: 1.26% |
| O=C(NCC1(N2CCOCC2)CCCCC1)c1cc(=O)[nH]c2ccccc12 | inactive: -0.957% |
| COc1cc(C(=O)NCC2(N3CCCCC3)CCCCC2)ccc1OC(F)F | inactive: 0.429% |
| CN(C)c1cccc(C(=O)NCC2(N3CCCCC3)CCCCC2)c1 | inactive: 2.8% |
| O=[N+]([O-])c1cc([N+](=O)[O-])c(OC2CCCCC2O)c([N+](=O)[O-])c1 (stereo not drawn) | inactive: -3.74% |
| COc1ccc(CN(CCCl)CCCl)cc1Cl | inactive: -0.12% |
| CC(C)c1ccc(NC2CCN(C(=O)OC(C)(C)C)CC2)cc1 | inactive: -8.33% |
| COc1cc(OC)c(C(=O)NCC2(N(C)C)CCCCC2)cc1OC | inactive: -12.9% |
| COc1ccc2c(c1O)-c1c(O)c(OC)cc3c1[C@H](C2)[N+](C)(C)CC3.O=[N+]([O-])c1cc([N+](=O)[O-])c([O-])c([N+](=O)[O-])c1[O-] | inactive: -6.81% |
| O=C(OC1CN2CCC1CC2)c1ccc([N+](=O)[O-])cc1 (stereo not drawn) | inactive: -6.49% |
| CCCOc1ccc(C(=O)NCC2(N(C)C)CCCCC2)cc1OC | inactive: 1.11% |
| O=C(NCC1(N2CCOCC2)CCCCC1)c1ccccc1Br | inactive: 1.43% |
| CCCCOc1ccccc1C(=O)NCC1(N2CCOCC2)CCCCC1 | inactive: -0.643% |
| O=C(NCC1(N2CCCCC2)CCCCC1)c1ccc(=O)[nH]c1 | inactive: 0.634% |
| CC(C)(C)OC(=O)N1CCC(N(C(=O)c2ccccc2)c2ccc(F)cc2)CC1 | inactive: -4.01% |
| COc1ccc(C(=O)NCC2(N3CCCCC3)CCCCC2)c(OC)c1OC | inactive: -2.23% |

| Structure (SMILES) | activity change, negative = inhibition |
| --- | --- |
| COc1ccc(C(=O)NCC2(N3CCCCC3)CCCCC2)cc1 | inactive: 4.83% |
| CSc1ccccc1C(=O)NCC1(N2CCCCC2)CCCCC1 | inactive: 4.47% |
| O=C(NCC1(N2CCOCC2)CCCCC1)c1cc2ccccc2o1 | inactive: -4.18% |
| Cc1cc(C)cc(N(C(=O)c2ccccc2)C2CCN(C(=O)OC(C)(C)C)CC2)c1 | inactive: -9.42% |
| CCOC(=O)N1CCC(Nc2ccc(OC)cc2)CC1 | inactive: -1.63% |
| O=C(OC1CN2CCC1CC2)C1c2ccccc2Oc2ccccc21 (stereo not drawn) | inactive: 3.09% |
| N#CC1(Nc2ccccc2)CCN(Cc2ccccc2)CC1 | inactive: -0.419% |
| CCOc1ccc(C)cc1CN(CCCl)CCCl | inactive: 3.9% |
| O=C(NCC1(N2CCOCC2)CCCCC1)c1ccc(Cl)cc1 | inactive: -3.47% |
| CCOC(=O)N1CCC(Nc2ccc(F)cc2)CC1 | inactive: -0.833% |
| COc1ccc(NC2CCN(CCc3ccccc3)CC2)c(OC)c1 | inactive: -2.13% |
| O=C(NCC1(N2CCCCC2)CCCCC1)c1ccc(F)cc1 | inactive: 1.98% |
| COc1ccccc1C(=O)NCC1(N2CCOCC2)CCCCC1 | inactive: 0.739% |
| Cc1ccc(OCC(C)C)c(CN(CCCl)CCCl)c1 | inactive: 1.03% |
| COc1cc(C(=O)NCC2(N(C)C)CCCCC2)ccc1OC(F)F | inactive: -3.69% |
| CCOC(=O)N1CCC(Nc2cccc(C)c2)CC1 | inactive: -4.63% |
| COc1cc(OC)cc(C(=O)NCC2(N3CCCCC3)CCCCC2)c1 | inactive: 3.19% |
| CN(C)C1(CNC(=O)c2ccc(C(C)(C)C)cc2)CCCCC1 | inactive: 1.58% |
| Fc1ccccc1NC1CCN(Cc2ccccc2)CC1 | inactive: -5.95% |
| CCN1CCC(Nc2cccc(F)c2)CC1 | inactive: 4.53% |
| CN(C)c1ccc(C(=O)NCC2(N3CCCCC3)CCCCC2)cc1 | inactive: 1.22% |
| CC(C)(C)c1ccc(C(=O)NCC2(N3CCOCC3)CCCCC2)cc1 | inactive: -6.19% |
| Cc1ccccc1C(=O)NCC1(N(C)C)CCCCC1 | inactive: 1.8% |
| CN1CCC(Nc2ccc(F)c(Cl)c2)CC1 | inactive: -1.58% |
| CCOc1ncccc1C(=O)NCC1(N2CCOCC2)CCCCC1 | inactive: -1.68% |

| Structure (SMILES) | activity change, negative = inhibition |
| --- | --- |
| CCCOc1ccc(C(=O)NCC2(N(C)C)CCCCC2)cc1 | inactive: 3.07% |
| O=C(O)C1(Nc2ccccc2)CCN(Cc2ccccc2)CC1 | inactive: 0.637% |
| CC(C)(C)OC(=O)N1CCC(Nc2ccccc2)CC1 | inactive: -4.45% |
| CCC(CO)(C(=O)OC1CN2CCC1CC2)c1ccccc1 (stereo not drawn) | inactive: 1.08% |
| COc1cccc(C(=O)N(c2cc(C)cc(C)c2)C2CCN(C(=O)OC(C)(C)C)CC2)c1 | inactive: -14% |
| COc1cc(OC)cc(C(=O)NCC2(N3CCOCC3)CCCCC2)c1 | inactive: 0.569% |
| COc1cc(C(=O)NCC2(N3CCOCC3)CCCCC2)cc(OC)c1OC | inactive: -2.73% |
| CCCOc1ccc(C)cc1CN(CCCl)CCCl | inactive: 3.34% |
| CN1CCC(Nc2ccc(Cl)cc2)CC1 | inactive: 2.21% |
| COc1ccc(C(=O)NCC2(N3CCOCC3)CCCCC2)cc1OC | inactive: -0.632% |
| N/C(=N\O)c1c(N)no[n+]1[O-] | inactive: -3.32% |
| CCOC(=O)N1CCC(Nc2ccc(C)cc2)CC1 | inactive: -0.311% |
| O=C(O)c1cccc(Nc2c([N+](=O)[O-])cc([N+](=O)[O-])cc2[N+](=O)[O-])c1 | inactive: -7.3% |
| O=C(OC1CN2CCC1CC2)C1c2ccccc2C=Cc2ccccc21 (stereo not drawn) | inactive: 5.36% |
| O=C(NCC1(N2CCOCC2)CCCCC1)c1ccc([N+](=O)[O-])cc1 | inactive: -1.22% |
| CC(C)(C)OC(=O)N1CCC(N(C(=O)c2ccccc2)c2ccc(Cl)cc2)CC1 | inactive: -8.21% |
| O=C(NCC1(N2CCOCC2)CCCCC1)c1ccccc1[N+](=O)[O-] | inactive: -1.42% |
| N#Cc1ccc(C(=O)NCC2(N3CCCCC3)CCCCC2)cc1 | inactive: 3.46% |
| CCOC(=O)C(CC)C1=NC(C)(C)Cc2ccccc21.O=[N+]([O-])c1cc([N+](=O)[O-])c(O)c([N+](=O)[O-])c1 (stereo not drawn) | inactive: -4.5% |
| O=C(NCC1(N2CCOCC2)CCCCC1)c1ccccc1 | inactive: -1.7% |
| CCCN1CCC(Nc2cc(OC)cc(OC)c2)CC1 | inactive: 2.38% |
| c1ccc(CN2CCC(Nc3ccccc3)CC2)cc1 | inactive: -0.522% |
| CN(C)C1(CNC(=O)c2cccc(C#N)c2)CCCCC1 | inactive: -4.23% |
